These results are taken from PubChem BioAssay AID686940 (The Scripps Research Institute Molecular Screening Center, 2013).

Chains of the proteins cited; added tags and fusions are not shown.
UniProt P24468, whole entry: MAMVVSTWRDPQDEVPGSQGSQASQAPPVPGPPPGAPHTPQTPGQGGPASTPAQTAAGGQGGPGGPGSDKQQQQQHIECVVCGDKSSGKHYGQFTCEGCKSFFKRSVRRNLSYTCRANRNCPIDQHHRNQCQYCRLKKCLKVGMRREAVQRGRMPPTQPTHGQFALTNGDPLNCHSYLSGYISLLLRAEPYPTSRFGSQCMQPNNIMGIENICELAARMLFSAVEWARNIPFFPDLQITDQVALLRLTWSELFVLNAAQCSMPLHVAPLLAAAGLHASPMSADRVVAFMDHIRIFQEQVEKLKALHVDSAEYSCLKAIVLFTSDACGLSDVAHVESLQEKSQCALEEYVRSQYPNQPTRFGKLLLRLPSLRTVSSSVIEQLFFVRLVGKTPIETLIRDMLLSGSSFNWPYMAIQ

This is a selection; strong and weak results do not stand in their true shares. Active and inactive are the calls of the source.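 How the source made its calls: active means inhibition above a per-plate cutoff, mean inhibition of test wells between control levels plus 3 SD (cut at about 38% in these data); inactive means the rest.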

As a reminder, the inhibition is the change of the read-out against control, counted positive when it falls.

For this assay, the target named is COUP transcription factor 2 (Homo sapiens) (UniProt P24468). Put plainly: NR2F2 transcriptional activity inhibitors, primary screen, cell-based, luciferase reporter, HEK293T, luminescence (AID 686940).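 Further: cells cotransfected with COUP-TFII expression vector driving the NGFI-A reporter; 0% = median of COUP-TF2 test wells and 100% = reporter-only cells.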 The settings on record: HEK293T NGFI-A luciferase reporter, at 8.6 µM, hits give high values. (In general: Reporter assays use an easily measured gene product as a stand-in for the process of interest.)
As for `CCCCn1nnnc1C(c1ccnc2ccccc12)N1CCC(n2c(=O)[nH]c3ccccc32)CC1` (configuration not stated), the inhibition was inactive: 7.14%. Under `CCC(c1nnnn1C(C)(C)C)N1CCC(n2c(=O)[nH]c3ccccc32)CC1` (configuration not stated) stands inactive: -6.99%; under `O=C(NCC1(N2CCOCC2)CCCCC1)c1cc(F)c(F)cc1Cl`, inactive: -24.6%; under `COc1cc(OC)c(C(=O)NCC2(N(C)C)CCCCC2)cc1OC`, inactive: 10.4%. Under `O=C(NCC1(N2CCCCC2)CCCCC1)c1cncc(Br)c1` stands inactive: 6.92%; under `CN1CCC(Nc2cccc(F)c2)CC1`, inactive: 6.97%; under `CCCOc1ccc(C(=O)NCC2(N(C)C)CCCCC2)cc1OC`, inactive: 1.54%. In the case of `Cc1ccc(C(=O)NCC2(N(C)C)CCCCC2)o1` it was inactive: -7.39%. Regarding `COc1ccc(C(c2nnnn2C2CCCC2)N2CCC(n3c(=O)[nH]c4ccccc43)CC2)cc1` (configuration not stated), the inhibition is inactive: -6.58%.

Take `O=C(NCC1(N2CCCCC2)CCCCC1)c1ccc(OC(F)F)cc1`: the inhibition was inactive: -4.8%.

Turning to `CC(C)(C)n1nnnc1C(c1ccccc1OC(F)(F)F)N1CCC(n2c(=O)[nH]c3ccccc32)CC1` (configuration not stated), the inhibition was inactive: -1.04%. Regarding `CSc1ccc(C(=O)NCC2(N3CCOCC3)CCCCC2)cc1`, the inhibition is inactive: 4.28%.

Take `O=C(NCC1(N2CCCCC2)CCCCC1)c1cccc([N+](=O)[O-])c1`: the inhibition was inactive: -10.2%. As to `N#CC1(Nc2ccccc2)CCN(CCc2ccccc2)CC1`, the inhibition is inactive: 12.3%. Consider `O=c1[nH]c2ccccc2n1C1CCN(C(c2ccccc2OC(F)(F)F)c2nnnn2C2CCCC2)CC1` (configuration not stated), for which the inhibition was inactive: 0.69%. In the case of `CCN1CCC(Nc2ccc(Cl)cc2)CC1` it was inactive: -24.2%; in that of `O=C(NCC1(N2CCCCC2)CCCCC1)c1cccc(C(F)(F)F)c1`, inactive: 0.5%; in that of `CCCCn1nnnc1C(c1cccc2ccccc12)N1CCC(n2c(=O)[nH]c3ccccc32)CC1` (configuration not stated), inactive: 6.6%. Under `CN1CCN(CCOC(=O)C(O)(c2ccccc2)c2ccccc2)CC1` stands inactive: -12.5%; under `COc1ccc(NC2CCN(C(=O)OC(C)(C)C)CC2)cc1`, inactive: 5.76%. Under `CC(C)c1ccc(C(=O)NCC2(N3CCOCC3)CCCCC2)cc1` stands inactive: -5.19%; under `COc1cc(C(=O)NCC2(N3CCCCC3)CCCCC2)ccc1OC(F)F`, inactive: -7.51%; under `O=C(NCC1(N2CCOCC2)CCCCC1)c1cc(=O)[nH]c2ccccc12`, inactive: 13.4%. On to `CCOc1ccc(C)cc1CN(CCCl)CCCl`, for which the inhibition was inactive: -12.1%. In the case of `O=C1CCN(Cc2ccccc2)CC1` it was inactive: 3.66%; in that of `CC(C)(C)n1nnnc1C(c1ccccc1)N1CCC(n2c(=O)[nH]c3ccccc32)CC1` (configuration not stated), inactive: 14.5%. In the case of `COc1ccc(NC2CCN(CCc3ccccc3)CC2)c(OC)c1` it was inactive: 4.24%; in that of `CCOC(=O)N1CCC(Nc2ccc(F)cc2)CC1`, inactive: 7.96%; in that of `O=C(NCC1(N2CCCCC2)CCCCC1)c1ccc(F)cc1`, inactive: 7.91%. Take `O=P1(N(CCCl)CCCl)SCCCS1`: the inhibition was inactive: -7.03%.

Regarding `CCCCn1nnnc1C(c1cc2ccccc2o1)N1CCC(n2c(=O)[nH]c3ccccc32)CC1` (configuration not stated), the inhibition is inactive: 6.69%. For the molecule `CCCCOc1ccc(C(=O)NCC2(N3CCOCC3)CCCCC2)cc1`, the inhibition was inactive: -5.47%. With `O=c1[nH]c2ccccc2n1C1CCN(C(c2ccccc2)c2nnnn2C2CCCCC2)CC1` (configuration not stated), the inhibition is inactive: -17.4%.

In the case of `O=c1[nH]c2ccccc2n1C1CCN(C(c2cccc3ccccc23)c2nnnn2C2CCCC2)CC1` (configuration not stated), the inhibition was inactive: -20.9%. Under `COc1cc(C(=O)NCC2(N(C)C)CCCCC2)ccc1OC(F)F` stands inactive: 3.61%; under `CCOC(=O)N1CCC(Nc2cccc(C)c2)CC1`, inactive: 4.91%; under `CCCCn1nnnc1C(c1cccs1)N1CCC(n2c(=O)[nH]c3ccccc32)CC1` (configuration not stated), inactive: 5.73%. Under `CCCCn1nnnc1C(CC)N1CCC(n2c(=O)[nH]c3ccccc32)CC1` (configuration not stated) stands inactive: 9%; under `O=C(NCC1(N2CCCCC2)CCCCC1)c1cccs1`, inactive: -0.77%; under `O=C(NCC1(N2CCCCC2)CCCCC1)c1ccc(=O)[nH]c1`, inactive: 6.64%. `CCC(c1nnnn1C1CCCC1)N1CCC(n2c(=O)[nH]c3ccccc32)CC1` (configuration not stated): the inhibition is inactive: -7.24%. Consider `COc1ccc(C(=O)NCC2(N3CCCCC3)CCCCC2)c(OC)c1OC`, for which the inhibition was inactive: -2.14%. Take `CC(C)(C)OC(=O)N1CCC(N(C(=O)c2ccccc2)c2ccc(F)cc2)CC1`: the inhibition was inactive: 14.6%. Regarding `COc1ccc(C(=O)NCC2(N3CCCCC3)CCCCC2)cc1`, the inhibition is inactive: 9.23%. In the case of `Cc1cccc(NC2(C#N)CCN(Cc3ccccc3)CC2)c1`, the inhibition was inactive: -7.01%. In the case of `CSc1ccccc1C(=O)NCC1(N2CCCCC2)CCCCC1` it was inactive: 0.96%; in that of `O=C(NCC1(N2CCOCC2)CCCCC1)c1cc2ccccc2o1`, inactive: -4.06%.

With `Cc1cc(C)cc(N(C(=O)c2ccccc2)C2CCN(C(=O)OC(C)(C)C)CC2)c1`, the inhibition was inactive: 13.4%. In the case of `O=c1[nH]c2ccccc2n1C1CCN(C(c2ccccc2OC(F)(F)F)c2nnnn2C2CCCCC2)CC1` (configuration not stated), the inhibition was inactive: -3.42%. Under `O=C(NCC1(N2CCCCC2)CCCCC1)c1ccc(Cl)nc1` stands inactive: 9.1%; under `CCCCn1nnnc1C(c1ccc(OC)cc1)N1CCC(n2c(=O)[nH]c3ccccc32)CC1` (configuration not stated), inactive: 1.66%.

For the molecule `CCOC(=O)N1CCC(Nc2ccc(OC)cc2)CC1`, the inhibition is inactive: -13.1%.

For `COc1ccc(Cl)cc1C(=O)NCC1(N2CCOCC2)CCCCC1`, the inhibition was inactive: -1.39%. Under `O=C(OC1CN2CCC1CC2)C1c2ccccc2Oc2ccccc21` (configuration not stated) stands inactive: -1.9%; under `O=c1[nH]c2ccccc2n1C1CCN(C(c2cc3ccccc3o2)c2nnnn2C2CCCCC2)CC1` (configuration not stated), inactive: -1.1%; under `N#CC1(Nc2ccccc2)CCN(Cc2ccccc2)CC1`, inactive: 7.15%. Regarding `O=C(NCC1(N2CCCCC2)CCCCC1)c1ccc(Cl)s1`, the inhibition is inactive: -2.41%.
